Assay results from article PMC7893793 (ACS Omega, 2021).

Experiment: Pharmacokinetic study in rats after oral administration of PbR extract
Type: in vivo, rat
Details: after oral administration of PbR at a dose of 0.5 g/100 g

detection in rat plasma: neither of these were detected
Substance: echinacoside
